Source: ChEMBL document CHEMBL4219124, “Alleviating CYP and hERG liabilities by structure optimization of dihydrofuran-fused tricyclic benzo[d]imidazole series - Potent, selective and orally efficacious microsomal prostaglandin E synthase-1 (mPGES-1) inhibitors: Part-2” (Bioorg Med Chem Lett, 2018)

species on record: Homo sapiens; assay: Selectivity ratio of IC50 for human mPGES1-mediated PGF2alpha production to IC50 for mPGES1 in human A549 cells; format: cell-based

Compound	Ratio IC50
CC1(C)Cc2c(c(C(=O)Nc3ccc(F)c(C(F)(F)F)c3)cc3nc(Nc4c(F)cccc4Cl)[nH]c23)O1	461
Cn1c(Nc2c(F)cccc2Cl)nc2cc(C(=O)Nc3cccc(C(F)(F)F)c3)c3c(c21)CC(C)(C)O3	556
CC1(C)Cc2c(c(C(=O)Nc3cc(C(F)(F)F)ccc3F)cc3nc(Nc4c(F)cccc4Cl)[nH]c23)O1	740
